Sequences of proteins named here, by UniProt entry; tags and fusion partners are left off. A change or cut given only in a name is not applied to a line headed by its entry.
UniProt P41145: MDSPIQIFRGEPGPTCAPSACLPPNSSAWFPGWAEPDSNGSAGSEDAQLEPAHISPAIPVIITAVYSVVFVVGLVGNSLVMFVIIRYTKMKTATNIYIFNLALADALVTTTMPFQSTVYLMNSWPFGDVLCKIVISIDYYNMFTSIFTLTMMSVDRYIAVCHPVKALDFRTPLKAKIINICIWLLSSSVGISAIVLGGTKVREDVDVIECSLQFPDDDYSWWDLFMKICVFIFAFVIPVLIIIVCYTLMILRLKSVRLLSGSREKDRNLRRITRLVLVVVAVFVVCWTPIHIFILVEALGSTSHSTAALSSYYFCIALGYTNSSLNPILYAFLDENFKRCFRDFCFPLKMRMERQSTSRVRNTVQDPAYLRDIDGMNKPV

In ChEMBL document CHEMBL1157450, “Potent and selective small-molecule human urotensin-II antagonists with improved pharmacokinetic profiles” (Bioorg Med Chem Lett, 2008):

Biological target: Kappa-type opioid receptor (Homo sapiens, UniProt P41145)
Assay: Agonist activity at kappa opioid receptor
Assay type: functional

## CN(C(=O)Cc1ccc(Cl)c(Cl)c1)[C@H](CN1CCCC1)c1ccccc1 [ICI-199,441]
  EC50: 0.4 nM
